These results are taken from ChEMBL document CHEMBL3046441, “Importance of physicochemical properties for the design of new pesticides” (J Agric Food Chem, 2011).

Each structure is given as a SMILES string.

This data set in a line: Hydrophobicity, log P of the compound in octanol-water by shaking-flask method. Format: physicochemical.

The compound `COP(=S)(OC)Oc1ccc(SC)c(C)c1` [FENTHION] returned a logP of 4.09.

In general, logP refers to a log measure of how a compound divides between an organic and an aqueous phase. The low end stands for lower lipophilicity, the high end for higher lipophilicity.
